Molecules are shown by their SMILES. The entries are a selection whose mix differs from that of the whole data set. Some results for these compounds are left out of this collection, so the calls shown say nothing about other tests. Calls of active or inactive are those of the source.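 Rule for the calls: active = 10 µM primary screen giving 50% or more activity, confirmed by 40% or more on retest at that dose; inactive = the rest.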

The chains behind the UniProt entries cited, without tags or fusion partners.
UniProt P05107, whole entry, looked up: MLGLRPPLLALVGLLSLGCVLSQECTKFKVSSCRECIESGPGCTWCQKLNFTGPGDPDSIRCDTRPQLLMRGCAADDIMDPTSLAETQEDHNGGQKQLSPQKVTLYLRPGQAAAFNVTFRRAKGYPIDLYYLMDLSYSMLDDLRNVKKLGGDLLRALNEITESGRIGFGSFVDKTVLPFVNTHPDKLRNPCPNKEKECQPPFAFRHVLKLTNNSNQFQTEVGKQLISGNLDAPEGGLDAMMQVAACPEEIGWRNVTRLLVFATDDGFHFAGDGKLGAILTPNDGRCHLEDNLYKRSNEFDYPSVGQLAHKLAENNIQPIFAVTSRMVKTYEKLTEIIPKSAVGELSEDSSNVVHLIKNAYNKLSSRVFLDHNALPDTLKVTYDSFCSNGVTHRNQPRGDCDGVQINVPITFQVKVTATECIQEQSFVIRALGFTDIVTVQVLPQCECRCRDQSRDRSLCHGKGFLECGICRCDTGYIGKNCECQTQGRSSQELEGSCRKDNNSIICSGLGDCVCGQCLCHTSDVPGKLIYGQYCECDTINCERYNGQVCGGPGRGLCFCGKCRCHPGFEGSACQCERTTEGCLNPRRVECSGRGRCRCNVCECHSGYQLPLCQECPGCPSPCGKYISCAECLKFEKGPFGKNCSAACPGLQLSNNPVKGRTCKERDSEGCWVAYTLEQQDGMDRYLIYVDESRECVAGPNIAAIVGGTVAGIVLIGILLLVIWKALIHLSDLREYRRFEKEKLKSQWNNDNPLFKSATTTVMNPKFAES

The experiment deals with Integrin beta-2 (Homo sapiens) + Integrin alpha-M (Homo sapiens) (UniProt P05107+P11215). As to the kind of experiment: enhancers of CD11b/CD18 adhesion to fibrinogen, primary screen, K562 cells, luminescence (AID 1499). The note with it: ATPlite luminescence, at 10 µM, active compounds read high.
With `CN(C)C1CCCC1OC(=O)C(O)(c1ccccc1)c1ccccc1` (stereo not drawn), the activation is inactive: 2.6%. The result for `O=C(OC1CN2CCC1CC2)C(CO)(c1ccccc1)c1ccccc1` (stereo not drawn) reads inactive: 3.5%; that for `CN(C)c1cccc(C(=O)NCC2(N(C)C)CCCCC2)c1`, inactive: -0.8%.

For the origin of these results see PubChem BioAssay AID1499 (Sanford-Burnham Center for Chemical Genomics, 2009).
